# Antibody variant affinities, Ab-14 light chain, assay 1

The measurements come from Engelhart et al. 2022 (doi:10.1038/s41597-022-01779-4) through the FLAb antibody collection.

All variants were tested on one target, the spike HR2 peptide PDVDLGDISGINAS (SARS-CoV-2).

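The parent was found by panning a naive human phage display library on the peptide. In library AAYL50, one, two or three CDR residues were substituted; doubles and triples were drawn at random. The assay is AlphaSeq: two haploid yeast populations carry antibody and antigen on their surface. Binding brings cells together so that they mate, and sequencing counts the barcode pairs among the diploids. Scores were corrected for input abundance and mapped to Kd with protein pairs of known affinity run in the same pool. Mating was done three times.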

Each scFv is VH, a 15-residue (Gly4Ser)3 linker, VL, as in the parent Ab-14, and differs from it in the CDRs of the light chain only.
VH: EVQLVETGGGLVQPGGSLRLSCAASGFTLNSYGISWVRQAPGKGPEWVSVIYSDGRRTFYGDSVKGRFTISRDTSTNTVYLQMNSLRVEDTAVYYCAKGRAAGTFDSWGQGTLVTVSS
VL: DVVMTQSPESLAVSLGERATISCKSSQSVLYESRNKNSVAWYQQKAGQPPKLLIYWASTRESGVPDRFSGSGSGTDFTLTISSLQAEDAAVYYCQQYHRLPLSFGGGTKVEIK

The parent's light chain CDRs are KSSQSVLYESRNKNSVA, WASTRES, QQYHRLPLS; each variant's own CDRs replace them letter for letter.
The read-out is the apparent dissociation constant on a log10 scale (nM): the lower, the stronger.
A mean of the replicates is given; it leaves out those without a signal.
"nd" marks a missing value. The strain was present, yet no cells mated with the target were sequenced in that replicate, which points to weak or no binding.

CDR-L1	CDR-L2	CDR-L3	log10 Kd (nM) by replicate	mean, log10 nM	empty controls
KSSQRVLYESRNKNSVA	WASGNES	QQYHRLPLS	4.88 / 3.50 / nd	4.19	6/9 (4.04)
KSSQSVLYESRCKNSVA	WASTREN	QTYHRLPLS	nd / nd / 4.36	4.36	1/9 (3.34)
VSSQSVLYDSRNKNSVA	WASTRES	QQYHRLPFS	nd / nd / nd	nd	1/9 (3.74)
KSSQSVLYESRNKNSVA	WASTRES	QQIHRLPLS	nd / nd / nd	nd	2/9 (3.09)
KSSQFVLYESRNKNSVA	WASTRES	QQWHALPLS	nd / nd / nd	nd	0/9
KSSQSVTYESRNKNSVA	WISTRES	QQYHRLPCS	2.42 / nd / nd	2.42	0/9
KSSQSVLEESRNKVSVA	WASTRES	QQYHRDPLS	4.20 / 3.58 / nd	3.89	2/9 (3.91)
KSSQSVLYESRNKNSVA	WASTRMP	QMYHRLPLS	1.11 / 1.52 / 1.33	1.32	1/9 (3.01)
KSSQSHLYESRFKNSVA	WASTREG	QQYHRLPLS	2.34 / 2.21 / 2.40	2.32	2/9 (4.02)
MSSQSVLYESRNKMSVA	KASTRES	QQYHRLPLS	0.67 / 0.93 / 1.06	0.89	0/9
KSSQSVQYESRWKNSVA	WASTRES	QPYHRLPLS	2.41 / 1.85 / 2.18	2.15	4/9 (4.83)
KSSQSVLYRSRNKNSVH	WASTQES	QQYHRLPLS	nd / nd / 4.84	4.84	2/9 (4.33)
KSSQSDLYESRNKNWVA	WASTRES	QPYHRLPLS	nd / nd / nd	nd	1/9 (4.44)
KMSQSVEYESRNKNSVW	WASTRES	QQYHRLPLS	nd / nd / nd	nd	1/9 (2.40)
KSSFSVLYESRNLNSVA	WASWRES	QQYHRLPLS	3.64 / 3.70 / 3.99	3.78	8/9 (4.77)
KSSQSVDYESRNMKSVA	WASTRES	QQYHRLPLS	0.98 / 1.11 / 1.14	1.08	3/9 (4.83)
KSSQSVLYESRNHNSVA	WASTRES	QQHHRLPRS	nd / nd / nd	nd	0/9
KSSQSLLYESRNKNSVA	WASTRES	QQYHRLPLS	0.32 / 0.58 / 0.50	0.47	6/9 (5.29)
KSSQSVLYESRNKNSFA	WASTRES	RQYHRLPLP	nd / nd / nd	nd	0/9
CSSQSVLYESRNKNSVA	WMSTDES	QQYHRLPLS	nd / nd / nd	nd	0/9
KSSQKVLYESRNKNSVA	WWETRES	QQYHRLPLS	nd / nd / 4.92	4.92	3/9 (5.14)
KSSQSVAYESRNKNSVA	WASTRES	QQLHRLPLS	2.13 / 1.96 / 2.07	2.05	4/9 (4.68)
KSSQSVLYESKNKNSHA	WASTRES	RQYHRLPLS	nd / nd / nd	nd	1/9 (5.17)
KSSQSVLYESMNKNSVA	WASTREG	QQYHRLDLS	1.97 / 1.78 / 1.81	1.85	1/9 (6.43)
KSSQSVLYEGRNKNSVA	WASTRES	QLYHRLRLS	2.89 / 2.22 / 3.03	2.71	1/9 (3.67)
KHSQSVLYESRNKNSVA	WADTKES	QQYHRLPLS	2.43 / 2.18 / 2.63	2.41	2/9 (4.16)
KSSQSVLYESRNKNSVA	WASTRAS	DQYHRLPLS	2.46 / 2.35 / 2.36	2.39	2/9 (3.99)
KSSQTVLYEFRNKNSVA	WASTRES	QGYHRLPLS	nd / nd / nd	nd	0/9
KSSQSVLILSRNKNSVA	WASTRES	QQVHRLPLS	nd / nd / nd	nd	0/9
KQSQSVLRESRNKNSGA	WASTRES	QQYHRLPLS	nd / nd / nd	nd	3/9 (3.50)

For reference, 2 entries of the list once more:

{"CDR-L1": "KQSQSVLRESRNKNSGA", "CDR-L2": "WASTRES", "CDR-L3": "QQYHRLPLS", "log10 Kd (nM) by replicate": "nd / nd / nd", "mean, log10 nM": "nd", "empty controls": "3/9 (3.50)"}
{"CDR-L1": "KSSQSVLYESRNKNSVA", "CDR-L2": "WASTRES", "CDR-L3": "QQIHRLPLS", "log10 Kd (nM) by replicate": "nd / nd / nd", "mean, log10 nM": "nd", "empty controls": "2/9 (3.09)"}

For reference, the parent read 0.65 as the reference entry and 1.68 as a member of this library.
Background: pairings of library AAYL50 with three empty control strains gave a value in 18% of cases (median 4.19, 5th percentile 2.99). Values in that range, when seen in few replicates, are hard to tell from nonspecific mating. The control count says in how many pairings with the empty strains this scFv gave a signal, with their mean in brackets.